High-throughput results from PubChem BioAssay.
LMNA splice mod = changes lamin A minigene splicing in HeLa cells; actives 0.01% (n = 200,000); AID 1487; Potency, µM (doses to about 46.1 µM), for the others: at the top dose ratio change, negative = inhibition, most hits filed as inhibitors; HeLa LMNA splicing GFP/RFP minigene ratio, 48 h; active = well fitted inhibition curve with a large enough effect in the signal ratio, with a control signal flat, not every such curve was filed as active; inconclusive = small, poorly fitted or top-dose-only effect, or effect the other way, or a change in a side signal; the % refers to the signal ratio; note: potency is the fitted concentration of half-maximal effect; % is set by controls: 0 for no effect and ±100 for the full control effect
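S3 HeLa stable clones carrying a lamin A-EGFP splicing minigene plus DsRed2 were seeded at 600 cells/well in Opti-MEM with 2% FBS, pin-dosed and incubated 48 h at 37°C. Acumen cytometry (488 nm) gave the GFP/RFP total-intensity ratio.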
ALDH1A1 block = ALDH1A1 (human) enzyme inhibition; actives 7.3% (n = 220,000); Potency, µM (top dose mostly 75.3 µM), inactives show at the top dose activity, negative = inhibition, most hits filed as inhibitors; Purified ALDH1A1, NADH fluorescence, propionaldehyde substrate; P00352; active = well fitted inhibition curve with a large enough effect, not every such curve was filed as active; inconclusive = small, poorly fitted or top-dose-only effect, or another doubt; inactive = no such curve, though single readings can be large or run the other way;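 note: potency is the fitted concentration of half-maximal effect; plate controls were no enzyme wells and a reference inhibitor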
G9a block = G9a (human) methyltransferase inhibition; actives 8.8% (n = 350,000); G9a H3K9 monomethylation, AlphaScreen, 2 h; Potency, µM (highest dose often 102 µM), inactives show at the top dose activity, negative = inhibition, usual class: inhibitors; Q96KQ7; note: potency is the fitted concentration of half-maximal effect; % is set by controls: 0 for no effect and ±100 for the full control effect; nearly all actives have a fitted effect of over 75% in size
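G9a (20 nM) preincubated 15 min RT with compounds, then 500 nM biotinylated H3K9 peptide and 20 uM SAM added; 2 h RT reaction. Monomethyl-H3K9 product detected by AlphaScreen with anti-H3K9me1 antibody, streptavidin donor and anti-rabbit IgG acceptor beads.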
miR-21 reporter = miR-21 reporter, rising signal; HeLa miR-21 FLuc reporter, luciferase, 48 h; Potency, µM (titrated, usually from 38.3 µM), without a hit: top-dose reporter change, positive = more light; AID 2288; 340,000 tested, under 10 active; active = well fitted rising curve with a large enough effect; inconclusive = small, poorly fitted or top-dose-only effect; inactive = no such curve, though single readings can be large or run the other way;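 further: % of control where 0% means no effect; miR-21 action dims this reporter so a rising signal means less miR-21 action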
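HeLa cells stably expressing CMV-driven firefly luciferase with a downstream miR-21 binding sequence, endogenously expressing miR-21, were treated with titrations (up to about 40uM final) for 48 hours at 37 degree Celsius. Luciferase luminescence was read after lysis.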
KDM4E inh = inhibitors of human JMJD2E histone demethylase; B2RXH2; JMJD2E catalytic domain, FDH-coupled NADH fluorescence (FDH is formaldehyde dehydrogenase); Potency, µM (highest dose often 57.1 µM), for inactives: at the top dose activity change, negative = inhibition, hits mostly inhibitors; actives 1.6% (n = 230,000); active = well fitted inhibition curve with a large enough effect, not every such curve was filed as active; inconclusive = small, poorly fitted or top-dose-only effect, or another doubt; inactive = no such curve, though single readings can be large or run the other way;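 note: potency is the fitted concentration of half-maximal effect; 0% = wells with enzyme and -100% = buffer wells without enzyme; nearly all actives have a fitted effect of over 50% in size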
Sfp inh = qHTS Assay for Inhibitors of Bacillus subtilis Sfp phosphopantetheinyl transferase (PPTase) | Biochemical Sfp PPTase activity, qHTS | Potency, µM, without a hit: max response, negative = inhibition, most hits filed as inhibitors | actives 3.5% (n = 310,000) | AID 1490, 2009 | 4'-phosphopantetheinyl transferase ffp (Bacillus subtilis), Q9F4F7; active = well fitted inhibition curve with a large enough effect; inconclusive = small, poorly fitted or top-dose-only effect, or another doubt; inactive = no such curve, though single readings can be large or run the other way;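 note: the enzyme is Sfp with the accession as filed and its product quenches rhodamine fluorescence; potency is the fitted concentration of half-maximal effect; 0% = enzyme reaction without inhibitor and -100% = no enzyme wells; top concentration of the series not given in the record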
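Buffer: 50 mM Hepes-Na pH 7.6, 10 mM MgCl2, 0.01% Nonidet P-40, 0.01% BSA. Enzyme 15 nM, pre-exposed to compound 15 min; substrates then added and fluorescence change tracked over 30 min.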
The depositor's hits bear a star; ? = inconclusive; . = not tested or not shown; [ ] = remark or other dose. Shown are actives, neighbours in structure and some others; about 13% of the full set was active somewhere. Unless noted, calls come from the whole dose curve; as a rule, active = well fitted curve in the direction sought with a large enough effect; inconclusive = small, poorly fitted or top-dose-only effect, or another doubt; inactive = no such curve, though single readings can be large; an effect the other way counts as inactive or inconclusive.

SMILES | LMNA splice mod | ALDH1A1 block | G9a block | miR-21 reporter | KDM4E inh | Sfp inh
O=C(Nc1ccc(CN2CCOCC2)cc1)c1ccc(-c2cccc([N+](=O)[O-])c2)o1 | . | . | -17.5% | 28.7% | . | 0.3%
O=C(NN1CCOCC1)c1ccc(Cl)c([N+](=O)[O-])c1 | . | . | . | 1.1% | . | -1.7%
CC(C)C1=CC2=CC[C@@H]3[C@@](C)(C(=O)O)CCC[C@]3(C)C2CC1 (stereo partly drawn) | . | ? | . | . | 35.5µM* | -4.6%
CCN(CC)S(=O)(=O)c1ccc(C)c(NC(=O)/C=C/c2cccs2)c1 | ? | 0.708µM* | ? | 12.3% | -16.4% | 7.1%
Cc1ccccc1NC(=O)/C=C/c1cccs1 | -9.6%[46 µM] | -7.5% | 1.4% | -58.5% | -3.4% | 1.6%
CN1CCN(c2ncc3nc(-c4cccs4)c(=O)n(C[C@H]4CCCO4)c3n2)CC1 | . | ? | -0.3%[12.7 µM] | . | . | 3.1%
O=C(O)/C=C/c1ccc2noc(-c3ccccc3)c2c1 | ? | ? | . | -1.7% | -22.1% | 50.1µM*
Cc1nc(Nc2c(Cl)cccc2Cl)sc1C(=O)Nc1ccccc1 | ? | 14.1µM* | 50.1µM* | -2.6% | -4.2% | 14.0%
Cc1nc(N)sc1C(=O)Nc1ccccc1 | 16.8% | 10.9% | 50.1µM* | -52.6% | -4.4% | 4.7%
Cc1nc(NC(=O)C2CC2)sc1C(=O)Nc1ccccc1 | . | . | . | -8.4% | . | 2.4%
CCOC(=O)c1c(-c2ccc(C)cc2)csc1NC(=O)c1cc(=O)c2cc(C)ccc2o1 | . | . | ? | 0.8% | . | .
CC(Cc1ccccc1)NC(=O)CSc1nc2nc3c(cc2c(=O)n1-c1ccccc1)COC(C)(C)C3 (stereo not drawn) | -1.6% | 1.58µM* | 34.5%[12.7 µM] | -0.2% | -3.8% | 10.1%
CCn1c(SCC(=O)Nc2ccccc2)nc2nc3c(cc2c1=O)COC(C)(C)C3 | . | . | -37.0% | 6.7% | -5.6% | 5.3%
C=CCn1c(SCC(N)=O)nc2nc3c(cc2c1=O)COC(C)(C)C3 | . | . | -5.4% | -0.4% | ? | 14.6%
COc1ccc(-n2c(SCC(N)=O)nc3nc4c(cc3c2=O)COC(C)(C)C4)cc1 | 3.1% | 3.55µM* | -0.5%[59 µM] | -2.2% | -17.8% | 7.5%
O=[N+]([O-])c1cc(/C=N/O)ccc1Sc1ccccc1 | -0.5% | ? | ? | -34.7% | 4.2% | 70.8µM*
Cc1cc2c(cc1C)NC(c1c(C)n(C)n(-c3ccccc3)c1=O)C1=C(CC(C)(C)CC1=O)N2 (stereo not drawn) | ? | 22.4µM* | ? | -25.5% | ? | -0.7%
O=C(CNc1ccccc1)N/N=C/c1ccc([N+](=O)[O-])cc1 | -9.3% | 3.55µM* | 13.2% | -4.3% | -11.7% | -22.5%
O=C(CNc1cccc([N+](=O)[O-])c1)N/N=C/c1ccc([N+](=O)[O-])o1 | ? | 2µM* | 13.9%[59 µM] | 23.9% | -23.1% | -7.9%
O=C(CNc1cccc2ccccc12)N/N=C/c1ccc([N+](=O)[O-])o1 | ? | -4.2% | ? | ? | -1.9% | -12.7%
CCS(=O)(=O)N1CCN(S(=O)(=O)c2ccc(Cl)s2)CC1 | . | . | 15.8µM* | -6.1% | . | -5.6%
COc1ccc(C(=O)CC(=O)C(=O)Nc2ccc([N+](=O)[O-])cc2C)cc1 | . | . | 4.1% | -3.4% | . | -4.9%
Cc1nc2nc(-c3ccco3)[nH]n2c(=O)c1Cc1ccccc1 | 15.1% | ? | -17.6%[12.7 µM] | -9.3% | ? | -2.9%
COC(=O)Cc1c(C)nc2nc(-c3ccco3)[nH]n2c1=O | 3.2% | ? | ? | 5.1% | 5.3% | 56.2µM*
CC[C@H](C)NC(=O)c1ccc(Cn2c(=S)[nH]c3c([nH]c4ccc(OC)cc43)c2=O)cc1 | -2.2% | 6.7% | 56.2µM* | -24.3% | 1.7% | 11.1%

Grouped by structure: the compounds so far containing a Cl atom (3)
SMILES | LMNA splice mod | ALDH1A1 block | G9a block | miR-21 reporter | KDM4E inh | Sfp inh
O=C(NN1CCOCC1)c1ccc(Cl)c([N+](=O)[O-])c1 | . | . | . | 1.1% | . | -1.7%
Cc1nc(Nc2c(Cl)cccc2Cl)sc1C(=O)Nc1ccccc1 | ? | 14.1µM* | 50.1µM* | -2.6% | -4.2% | 14.0%
CCS(=O)(=O)N1CCN(S(=O)(=O)c2ccc(Cl)s2)CC1 | . | . | 15.8µM* | -6.1% | . | -5.6%

Further structures.
SMILES | LMNA splice mod | ALDH1A1 block | G9a block | miR-21 reporter | KDM4E inh | Sfp inh
CCN(CC)CCNC(=O)CCCCn1c(=S)[nH]c2c([nH]c3ccc(OC)cc32)c1=O | -2.3% | ? | 12.6µM* | -1.4% | ? | ?
CCOCCCNC(=O)c1ccc(Cn2c(=S)[nH]c3c([nH]c4ccc(OC)cc43)c2=O)cc1 | . | ? | ? | -6.8% | ? | 11.7%
COc1ccc2[nH]c3c(=O)n(Cc4ccc(C(=O)N5CCC(C(N)=O)CC5)cc4)c(=S)[nH]c3c2c1 | 5.4%[46 µM] | ? | 3.16µM* | 0.7% | ? | 22.4µM*
COc1ccc2[nH]c3c(=O)n(Cc4ccc(C(=O)NCC5CCCO5)cc4)c(=S)[nH]c3c2c1 (stereo not drawn) | ? | -8.5% | 1.26µM* | -2.0% | ? | -2.6%
CCCCNC(=O)c1ccc(Cn2c(=S)[nH]c3c([nH]c4ccc(OC)cc43)c2=O)cc1 | ? | 6.8% | -19.2% | -24.1% | ? | 9.6%
Cc1ccc(Sc2ccc(N3CCC(C(=O)Nc4ccc(Cl)cc4)CC3)nn2)cc1 | . | . | 6.3%[59 µM] | -0.4% | . | .
COc1ccc(N2C(=O)CC(N(CCc3ccc(S(N)(=O)=O)cc3)C(=S)Nc3ccccc3)C2=O)cc1 (stereo not drawn) | . | . | ? | ? | 5.3% | 17.1%
CCCOc1ccc(N2C(=O)CC(N(CCc3ccc(OC)cc3)C(=O)c3cccc(F)c3)C2=O)cc1 (stereo not drawn) | -15.9% | -3.4% | 44.7µM* | 8.8% | -7.6% | 1.7%
CCC(=O)N(CCc1ccc(S(N)(=O)=O)cc1)C1CC(=O)N(c2ccc(OC)cc2)C1=O (stereo not drawn) | . | ? | 56.2µM* | 0.6% | 0.7% | 3.2%
COc1ccc(CCNC(=O)c2cccc(S(=O)(=O)N3CCc4ccccc4C3)c2)cc1 | . | . | 2.6%[12.7 µM] | . | . | .
CCCN1C(=O)C(O)(CC(=O)c2cccc(OC)c2)c2ccccc21 (stereo not drawn) | 19.6% | 4.47µM* | -39.4%[12.7 µM] | -3.8% | 5.5% | -18.7%
CCCN1C(=O)C(O)(CC(=O)c2ccc(C(C)C)cc2)c2ccccc21 (stereo not drawn) | . | . | -0.5%[59 µM] | 25.0% | . | .
C#CCN1C(=O)C(O)(CC(=O)/C=C/C=C/c2ccccc2)c2ccccc21 (stereo not drawn) | -13.2%[46 µM] | 6.31µM* | ? | -7.3% | -1.7% | -28.8%
CCCN1C(=O)C(O)(CC(=O)c2ccc3c(c2)OCCO3)c2ccccc21 (stereo not drawn) | -8.3% | 7.08µM* | -27.4% | -3.9% | -5.3% | -4.1%
C#CCN1C(=O)C(O)(CC(=O)c2ccc3c(c2)OCCO3)c2ccccc21 (stereo not drawn) | 1.5% | 1µM* | 10.9% | -9.3% | -6.4% | 14.2%
CCOC(=O)C1=C(CN2CCN(c3ccccc3F)CC2)NC(=O)NC1c1ccc(Cl)cc1 (stereo not drawn) | . | . | ? | -3.3% | . | .
COC(=O)[C@@H]1C[C@H]1[C@@H](NS(=O)(=O)c1ccc(-c2ccccc2)cc1)c1ccccc1 | . | -4.7% | . | . | -0.7% | 16.5%
